CAL PDZ FP-1 = blocks peptide binding to the human CAL PDZ domain | hit rate 0.92% among 300,000 | inhibition, % at 24.9 µM | purified CAL PDZ, TMR-peptide fluorescence polarization, 1 h | Q9HD26;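 active = mean inhibition of at least 30% with at least half of replicates also reaching 30%; inconclusive = no clear call, values can overlap the other calls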;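 note: 0% = DMSO neutral control and 100% = excess unlabeled competitor peptide PRC23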
ARNT TACC3 PPI = disruptors of human ARNT/TACC3 interaction | Q9Y6A5 | AlphaScreen His-ARNT PAS-B/GST-TACC3 binding, luminescence; TACC3 fragment carries E629A point mutation | inhibition, % at 9.99 µM | hit rate 0.66% among 390,000 | AID 623870;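 active = mean inhibition of replicates at least 50% and at least half of replicates each reaching 50%; inconclusive = half or more replicates reach 50% but mean below 50%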;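 note: 0% = complete ARNT plus TACC3 wells and 100% = ARNT alone without TACC3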
CAL PDZ FP-2 = inhibitors of human CAL PDZ peptide binding; Q9HD26; purified CAL PDZ, TMR-peptide fluorescence polarization, 1 h; inhibition, % at 20 µM; hit rate 0.02% among 330,000; AID 504414;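 active = highest replicate inhibition of at least 40%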;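 note: plate controls were DMSO neutral control wells for no effect and unlabeled competitor peptide control wells for full effect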
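Test system: purified CerCALP PDZ construct; Compound dosing: one concentration, 20 µM compound; Also added: TMR-labelled reporter peptide T*-PRC34 bound in PDZ groove; Read-out: inhibition from polarization loss; Controls: unlabelled peptide and DMSO controls; Signal: FP readout, S and P plane fluorescence; Incubation: 1 h at RT.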
Vif inh = inhibitors of HIV Vif; AID 602346; inhibition, % at 7.49 µM; hit rate 0.35% among 340,000; HEK293T cells, Vif self-association by quenched fluorescence, imaging, 24 h; in the data active = inhibition above about 50%, passing the limit was not always enough; inconclusive = no clear call, values can overlap the other calls; inactive = below about 31%
UUG fidelity = alters start codon recognition fidelity in yeast. S. cerevisiae UUG-firefly luciferase reporter, luminescence/redox ratio. activity score, % at 18.7 µM. 0.13% of 350,000 active. AID 602363;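 active = replicate mean at a twofold rise or more, about +100% in these data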;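 also: firefly luciferase made from a UUG start codon reports start codon fidelity; reporter light over untreated wells divided by growth signal over untreated wells; some hits fall short of that in this replicate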
PglD DTNB = inhibitors of Campylobacter jejuni PglD acetyltransferase; inhibition, % at 12.5 µM; purified PglD enzyme, DTNB colorimetric CoA detection; hit rate 0.098% among 360,000; in the data active = inhibition above about 16%, passing the limit was not always enough; inconclusive = no clear call, values can overlap the other calls
PglD inh SP = confirmation of Campylobacter jejuni PglD acetyltransferase inhibitors; shares compounds with PglD DTNB; Purified C. jejuni PglD, DTNB absorbance 412 nm; inhibition, % at 20 µM; 320 tested, under 10 active;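 active = mean inhibition across replicates of at least 20% with every single replicate also at 20% or more; inconclusive = mean inhibition at least 20% but some replicate falls below 20%; inactive = mean inhibition under 20% and not all replicates reach it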;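 note: initial rate of CoA release by acetyl transfer from AcCoA to the UDP-4-amino sugar; 0% = median of neutral control wells and 100% = median of positive control wells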
* hit, by the source's call; u = inconclusive; x = no result. Hits are enriched below; roughly 1.6% of the tested compounds scored in any of these assays.

Labels used below: A = CAL PDZ FP-1; B = ARNT TACC3 PPI; C = CAL PDZ FP-2; D = Vif inh; E = UUG fidelity; F = PglD DTNB; G = PglD inh SP
> Cc1noc(C)c1NC(=O)N(C)C[C@H]1Oc2ccc(NC(=O)CCN3CCOCC3)cc2CC(=O)N([C@H](C)CO)C[C@@H]1C
  A: x; B: -12; C: x; D: x; E: 1; F: 1; G: x
> COc1ccc2c(c1)C(=O)c1ccccc1CO2
  A: 10; B: x; C: -3; D: -8; E: -9; F: 40*; G: 2
> CCNC(=O)CC1C(=O)N(c2ccccc2)C(=O)N1Cc1ccc(OC)cc1 (stereo not drawn)
  A: x; B: 1; C: 0; D: 14; E: -18; F: 33*; G: 0
> CCNC(=O)CC1C(=O)N(c2ccccc2)C(=O)N1CCc1ccc(OC)c(OC)c1 (stereo not drawn)
  A: x; B: 2; C: -3; D: 3; E: x; F: x; G: x
> C[C@@H]1CN([C@@H](C)CO)C(=O)c2cc(NC(=O)Nc3ccc(F)cc3)ccc2O[C@@H](C)CCCCO[C@@H]1CN(C)Cc1ccncc1
  A: x; B: 7; C: x; D: x; E: 9; F: 1; G: x
> c1ccc(CNc2nc(-c3cccnc3)nc3ccccc23)cc1
  A: -7; B: -2; C: -9; D: -11; E: -15; F: -5; G: x
> c1cncc(CNc2nc(-c3cccnc3)nc3ccccc23)c1
  A: -3; B: 20; C: -6; D: -6; E: -12; F: 24*; G: 3
> Cc1ccc(NC(=O)CSc2nnc(CN3CCOCC3)n2C)cc1C
  A: -2; B: 2; C: -2; D: -8; E: x; F: x; G: x
> CC(C)c1ccc(NC(=O)CSc2nnc(CN3CCOCC3)n2C)cc1
  A: -5; B: x; C: 0; D: 4; E: 1; F: 99*; G: -3
> CC=Cc1ccc2n(c1=O)C[C@H]1[C@H](CO)[C@@H](C(=O)NCCC)N(C(=O)C3CCOCC3)[C@@H]21 (mixture of isomers)
  A: x; B: x; C: x; D: x; E: x; F: 4; G: x

Labels used below: A = CAL PDZ FP-1; B = ARNT TACC3 PPI; C = CAL PDZ FP-2; D = Vif inh; E = UUG fidelity; F = PglD DTNB; G = PglD inh SP
> COCc1nc2ccccc2n1CCOc1ccccc1OC
  A: 3; B: 9; C: -3; D: 1; E: -2; F: 24*; G: -1
> COc1ccc(C2CC(c3ccccc3)=NN2C(=O)COC(=O)/C=C/c2ccc(O)c(OC)c2)cc1 (stereo not drawn)
  A: -4; B: -4; C: 0; D: -7; E: -1; F: 34*; G: 7
> COc1ccc(C2CC(c3ccccc3)=NN2C(=O)COC(=O)CNC(=O)c2ccccc2)cc1 (stereo not drawn)
  A: 4; B: -5; C: 1; D: 14; E: 21; F: -4; G: x
> O=C(COC(=O)CCc1nc2ccccc2n1-c1ccccc1)Nc1cccc(Cl)c1
  A: -3; B: -4; C: -1; D: 1; E: -3; F: 29*; G: -2
> C[C@H]1CN([C@@H](C)CO)C(=O)c2cc(-c3ccccc3)cnc2O[C@@H]1CN(C)C(=O)Cc1ccccn1
  A: x; B: -1; C: x; D: x; E: -14; F: 4; G: x
> c1ccc(COc2ncnc3c2ncn3CCCNCc2cccs2)cc1
  A: x; B: x; C: x; D: 9; E: -15; F: 28*; G: 1
> C[C@H](CO)N1C[C@H](C)[C@H](CN(C)S(=O)(=O)c2cn(C)cn2)Oc2cc(C3=CCCCC3)ccc2S1(=O)=O
  A: x; B: 3; C: x; D: x; E: x; F: 12; G: x
> O=C(O)/C(=C\c1ccc(Br)cc1)NC(=O)c1cccs1
  A: x; B: -4; C: -1; D: -4; E: -21; F: 25*; G: 2
> O=C(N/C(=C/c1ccc(Br)cc1)C(=O)N1CCCC1)c1cccs1
  A: -3; B: 4; C: -1; D: -1; E: x; F: x; G: x
> C[C@@H]1CN([C@H](C)CO)C(=O)c2cc(C#CC3CC3)cnc2O[C@H]1CN(C)C(=O)Cc1ccccn1
  A: x; B: -5; C: x; D: x; E: 5; F: 3; G: x

Labels used below: A = CAL PDZ FP-1; B = ARNT TACC3 PPI; C = CAL PDZ FP-2; D = Vif inh; E = UUG fidelity; F = PglD DTNB; G = PglD inh SP
> C=CCNc1nc(Cl)nc(Nc2ccc(OCC)cc2)n1
  A: -4; B: 2; C: -2; D: 8; E: -1; F: 29*; G: 3
> COc1ccccc1C#Cc1ccc2c(c1)O[C@@H](CN(C)Cc1ccccc1)[C@H](C)CN([C@@H](C)CO)S2(=O)=O
  A: x; B: 0; C: x; D: x; E: 7; F: 2; G: x
> COc1cc(/C=N\NC(=O)c2ccc(C)nc2)ccc1OC(=O)c1cccc(F)c1
  A: 1; B: 5; C: -2; D: 1; E: -10; F: 29*; G: -7
> COc1ccccc1-c1nnc(SCc2ccccn2)n1C
  A: x; B: -5; C: -2; D: 7; E: -24; F: 62*; G: -3
> COc1ccc(-c2nnc(SCc3ccccn3)n2C)cc1
  A: 1; B: x; C: 0; D: 3; E: -13; F: 8; G: x
> CC(=O)c1cccc(NC(=O)c2cccc3c(-c4cccnc4)coc23)c1
  A: x; B: x; C: x; D: -6; E: -9; F: 2; G: x
> CS(=O)(=O)Nc1cccc(NC(=O)c2cccc3c(-c4cccnc4)coc23)c1
  A: x; B: x; C: x; D: -1; E: -27; F: 35*; G: 1
> Cc1ccccc1OCC(=O)N/N=C/c1cc2ccccc2nc1Cl
  A: 0; B: -1; C: -2; D: -7; E: -22; F: 26*; G: 3
> O=C(COc1cccc(Cl)c1)N/N=C\c1cc2ccccc2nc1Cl
  A: -4; B: -2; C: -4; D: -1; E: 2; F: 5; G: x
> CCCC#Cc1ccc2c(c1)O[C@H](CN(C)Cc1ccc3c(c1)OCO3)[C@H](C)CN([C@@H](C)CO)S2(=O)=O
  A: x; B: 30; C: x; D: x; E: -8; F: 3; G: x

Complete entries, quoted from the list:
Results for CC(=O)c1cccc(NC(=O)c2cccc3c(-c4cccnc4)coc23)c1 : CAL PDZ FP-1: x; ARNT TACC3 PPI: x; CAL PDZ FP-2: x; Vif inh: -6; UUG fidelity: -9; PglD DTNB: 2; PglD inh SP: x
Results for COc1cc(/C=N\NC(=O)c2ccc(C)nc2)ccc1OC(=O)c1cccc(F)c1 : CAL PDZ FP-1: 1; ARNT TACC3 PPI: 5; CAL PDZ FP-2: -2; Vif inh: 1; UUG fidelity: -10; PglD DTNB: 29*; PglD inh SP: -7

Next part.
Labels used below: A = CAL PDZ FP-1; B = ARNT TACC3 PPI; C = CAL PDZ FP-2; D = Vif inh; E = UUG fidelity; F = PglD DTNB; G = PglD inh SP
> COc1cccc(NC(=O)N(C)C[C@@H]2Oc3cc(C#Cc4ccc(F)cc4)ccc3S(=O)(=O)N([C@@H](C)CO)C[C@H]2C)c1
  A: x; B: -3; C: x; D: x; E: -8; F: 3; G: x
> Oc1cc2c(cc1CN1CCN(c3cccc(C(F)(F)F)c3)CC1)CCC2
  A: -9; B: -2; C: 0; D: -3; E: -16; F: 55*; G: 1
> COc1ccc(N2CCN(Cc3cc4c(cc3O)CCC4)CC2)cc1
  A: -4; B: 12; C: -1; D: -9; E: -10; F: 2; G: x
> C[C@@H]1CN([C@@H](C)CO)C(=O)c2cc(NC(=O)NC3CCCCC3)ccc2O[C@H]1CN(C)Cc1ccc2c(c1)OCO2
  A: x; B: 0; C: x; D: x; E: 6; F: -6; G: x
> O=C1C2C3c4ccccc4C(c4ccccc43)C2C(=O)N1Cc1ccco1 (stereo not drawn)
  A: -6; B: 3; C: 0; D: -4; E: -10; F: 24*; G: -5
> CN(C)C(=O)CSc1nnc(-c2cc(-c3cccs3)nc3ccccc23)o1
  A: 1; B: -8; C: -3; D: -12; E: -13; F: 54*; G: -8
> CCN(CC)C(=O)CSc1nnc(-c2cc(-c3ccc(Cl)cc3)nc3ccccc23)o1
  A: -3; B: -15; C: 0; D: x; E: x; F: x; G: x
> C=CCc1c(OC)ccc2c1c(S(=O)(=O)c1ccc(C)cc1)cn2COC
  A: -1; B: -10; C: -1; D: 0; E: 9; F: 22*; G: 1
> Cc1cc(NC(=O)C2CCN(S(=O)(=O)c3cnc[nH]3)CC2)ccc1Br
  A: -2; B: -2; C: -3; D: 3; E: -20; F: 28*; G: 4
> Cc1ccc(NC(=O)C2CCN(S(=O)(=O)c3cnc[nH]3)CC2)cc1C
  A: -5; B: -3; C: 0; D: -3; E: -14; F: -4; G: x

Labels used below: A = CAL PDZ FP-1; B = ARNT TACC3 PPI; C = CAL PDZ FP-2; D = Vif inh; E = UUG fidelity; F = PglD DTNB; G = PglD inh SP
> C[C@@H]1CN([C@@H](C)CO)C(=O)c2cc(Br)cnc2O[C@H]1CN(C)Cc1ccccn1
  A: x; B: 10; C: x; D: x; E: -17; F: -3; G: x
> CC(O)(c1cccnc1)c1nc(-c2ccc3ccccc3c2)cs1 (stereo not drawn)
  A: x; B: x; C: x; D: -17; E: -25; F: 22*; G: -1
> Cn1cnnc1SCC(C)(C)NS(=O)(=O)c1ccc(Cl)cc1
  A: x; B: 2; C: -8; D: 8; E: -10; F: 29*; G: u
> COc1ccc(-n2ccnc2)cc1
  A: x; B: 11; C: -1; D: -11; E: -9; F: 37*; G: 9
> O=S1(=O)CCO[C@H]2Cc3ccccc3[C@H]2N1Cc1ccc(F)cc1
  A: -6; B: 5; C: -1; D: -17; E: 15; F: 27*; G: -6

High-throughput results deposited in PubChem by Broad Institute.
